High-throughput results deposited in PubChem by several laboratories.
Sampled rows, rich in hits. Any-hit rate of the full collection: about 0.45%.
Tn6 DDE FP: disrupts Tn6 cyclic peptide binding to fibrin D-Dimer-E complex; Fibrin DD(E) TRITC-Tn6 fluorescence polarization displacement; P02675; actives 0.21% (n = 370,000); inhibition, % at 8.3 µM;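 active = inhibition above a per-campaign cutoff: mean of compounds within control limits plus 3 SD, cut at about 15% in these data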
Yeast UUG start: alters start codon recognition fidelity in yeast; AID 602363; activity score, % at 18.7 µM; 350,000 tested, 0.13% active; S. cerevisiae UUG-firefly luciferase reporter, luminescence/redox ratio;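 active means replicate mean at a twofold rise or more, about +100% in these data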;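 further: firefly luciferase made from a UUG start codon reports start codon fidelity; reporter light over untreated wells divided by growth signal over untreated wells; some hits fall short of that in this replicate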
PglD inh: blocks C. jejuni PglD acetyltransferase activity; inhibition, % at 12.5 µM; actives 0.098% (n = 360,000); purified PglD enzyme, DTNB colorimetric CoA detection; in the data active = inhibition above about 16%, passing the limit was not always enough; inconclusive = no clear call, values can overlap the other calls
DDE Tn7 FP inh: DD(E)-Tn7 binding inhibition, primary FP screen; FP displacement of FITC-Tn7 peptide from fibrin DD(E); 0% = median of compound wells per plate; P02675; actives 0.13% (n = 370,000); inhibition, % at 8.3 µM;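 active = inhibition above the mean of compounds falling within the control limits plus 3 SD of them, cut at about 14% in these data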
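Test system – human fibrin DD(E) · Times – 10 min preincubation, 3 h with tracer, room temperature · Detection – fluorescence polarization of the labelled Tn7 tracer · Measure – percent inhibition normalized to high-control wells · Benchmarks – high control wells with 10 µM unlabelled Aha-Tn7 peptide (full inhibition) · Repeats – singlicate testing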
PglD inh SP: confirmation of Campylobacter jejuni PglD acetyltransferase inhibitors | shares compounds with PglD inh | Purified C. jejuni PglD, DTNB absorbance 412 nm | 320 tested, under 10 active | inhibition, % at 20 µM;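 active = mean inhibition across replicates of at least 20% with every single replicate also at 20% or more; inconclusive = mean inhibition at least 20% but some replicate falls below 20%; inactive = mean inhibition under 20% and not all replicates reach it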;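 also: initial rate of CoA release by acetyl transfer from AcCoA to the UDP-4-amino sugar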
A number is an active result; - = inactive; ? = inconclusive; . = no result given.

SMILES	Tn6 DDE FP	Yeast UUG start	PglD inh	DDE Tn7 FP inh	PglD inh SP
OCCN1CCOCCN(CCO)CCOCC1	-	-	21	-	-
COc1ccc(C(CCN2CCN(c3ccccc3)CC2)c2c(O)cc(OC)cc2OC)cc1 (stereo not given)	-	-	-	-	.
COc1ccc(N2CCN(CCC(O)c3ccc4ccccc4c3)CC2)cc1 (stereo not given)	-	-	29	-	-
Cc1ccc(NS(=O)(=O)c2cccc3nsnc23)cc1C	-	-	-	-	.
O=S(=O)(Nc1ccc(Cl)cc1)c1cccc2nsnc12	-	-	21	-	-
CCNC(=O)C[C@@H]1CC[C@H]2[C@H](COc3ccc(NC(=O)Nc4ccccc4OC)cc3C(=O)N2C)O1	.	-	-	.	.
Cc1c(C(=O)Nc2ccccc2C(=O)N2CCCC2)cccc1[N+](=O)[O-]	-	-	23	-	-
CC(=O)Nc1ccc(NC(=O)C2CCN(C(=O)c3ccc([N+](=O)[O-])cc3)CC2)cc1	-	.	.	-	.
CCc1ccccc1NC(=O)C1CCN(C(=O)c2ccc([N+](=O)[O-])cc2)CC1	-	-	46	-	-
C[C@H](CO)N1C[C@H](C)[C@@H](CN(C)C(=O)Nc2ccc(F)cc2)OCCCC[C@H](C)Oc2ccc(NC(=O)NC3CCCCC3)cc2C1=O	.	-	-	.	.
C[C@@H]1CN([C@@H](C)CO)C(=O)Cc2cc(NC(=O)c3ccncc3)ccc2O[C@H]1CN(C)Cc1ccc(Oc2ccccc2)cc1	.	-	-	.	.
COc1ccc(S(=O)(=O)N2CCCCC2)cc1NC(=S)Nc1ccccc1	-	-	23	-	-
CN(C)CC(=O)Nc1ccc2c(c1)[C@H]1C[C@@H](CC(=O)NCc3ccccc3)O[C@H](CO)[C@H]1O2	.	-	-	.	.
CCCC/C(O)=C1\C(=O)CCCC1=NCCc1c(C)[nH]c2ccc(OC)cc12	-	-	20	-	-
CNC[C@H]1Oc2cc(-c3ccncc3)ccc2S(=O)(=O)N([C@@H](C)CO)C[C@H]1C	.	-	-	.	.
CCOC(=O)c1ccc(NC(=S)N2CCC(O)CC2)cc1	-	-	24	-	-
Cc1ccc(S(=O)(=O)N(C)C[C@@H]2Oc3c(NC(=O)Nc4cccc5ccccc45)cccc3C(=O)N([C@@H](C)CO)C[C@H]2C)cc1	.	-	-	.	.
CCC(Oc1ccccc1F)C(=O)NCCCn1ccnc1 (stereo not given)	-	-	37	-	-
CC(C)CC#Cc1ccc2c(c1)O[C@H](CN(C)C(=O)c1cnccn1)[C@H](C)CN([C@H](C)CO)S2(=O)=O	.	.	-	.	.
Cc1ccc(-n2cc(-c3ccccc3)c3c(=O)[nH]cnc32)cc1	-	-	45	-	-
CC1Cc2ccccc2N1C(=O)c1ccc(N2CCCC2)c([N+](=O)[O-])c1 (stereo not given)	-	-	22	-	-
COC(=O)c1ccc(C2C(Oc3ccc(OC)cc3)C(=O)N2CCc2ccc(OC)c(OC)c2)cc1 (stereo not given)	-	-	35	-	-
CNC(=O)C[C@@H]1CC[C@@H]2[C@H](COC[C@@H](O)CN2C(=O)Nc2ccc3c(c2)OCO3)O1	.	.	-	.	.
CC1Oc2ccccc2N(CC(=O)N2CCCCC2)C1=O (stereo not given)	-	-	25	-	?
O=C(NCC[C@@H]1CC[C@@H](NC(=O)C2CCCCC2)[C@@H](CO)O1)c1cc(Cl)cc(Cl)c1	.	-	-	.	.
SMILES	Tn6 DDE FP	Yeast UUG start	PglD inh	DDE Tn7 FP inh	PglD inh SP
CC(=O)Nc1ccc(SCC(=O)Nc2ccccc2-c2ccccc2)cc1	-	-	20	-	-
O=C(Nc1sc2c(c1CN1CCOCC1)CCC2)c1ccc(F)cc1	-	-	-	-	.
CC(=O)Nc1sc2c(c1CN1CCN(C)CC1)CCCC2	-	-	59	-	-
CCN(CC)S(=O)(=O)c1ccc(S(=O)(=O)N2CCCC2C(=O)O)cc1 (stereo not given)	-	-	25	-	-
COc1ccc(C(C(=O)NCC2CCCO2)N(C(=O)CNC(=O)c2ccco2)c2ccc(C)c(C)c2)cc1OC (stereo not given)	-	-	22	-	-
O=C(C[C@@H]1CC[C@@H]2[C@H](COC[C@@H](O)CN2C(=O)c2cnccn2)O1)NCc1ccccc1	.	-	-	.	.
COc1cc(NC(=O)COC(=O)CSc2ccccc2F)c(C)cc1[N+](=O)[O-]	-	.	.	-	.
COc1cc(NC(=O)COC(=O)CSc2cc(C)ccc2C)c(C)cc1[N+](=O)[O-]	-	-	22	-	-
COc1ccc(CNC(=O)C[C@@H]2C[C@@H]3c4cc(NS(C)(=O)=O)ccc4O[C@@H]3[C@H](CO)O2)cc1	.	-	-	.	.
N#CC1=C(N)Oc2cc(N)ccc2C1c1cccc(F)c1 (stereo not given)	-	-	72	-	-
CCc1nc2ccc(C(=O)NCCCn3ccnc3)cn2c1N(C)Cc1cccs1	-	-	20	-	-
Cc1noc(C)c1NC(=O)Nc1ccc2c(c1)C(=O)N([C@@H](C)CO)C[C@H](C)[C@H](CN(C)Cc1ccncc1)OCCCC[C@H](C)O2	.	-	-	.	.
COc1ccc(N(CC(=O)Nc2cccc(C(C)=O)c2)S(=O)(=O)c2ccc(NC(C)=O)cc2)cc1	-	-	77	-	-
Cn1nnnc1SCCNS(=O)(=O)c1ccccc1	-	-	22	-	?
CCNCCNC(=O)c1c(O)c2cccc3c2n(c1=O)CCC3	-	-	22	-	-
CCCn1c(=O)c(Cc2ccccc2)c(O)c2ccccc21	-	-	-	-	.
CCCCCn1c(=O)c(Cc2ccccc2)c(O)c2ccccc21	-	-	22	-	-
C[C@@H]1CCCCO[C@@H](CN(C)C(=O)CCC(F)(F)F)[C@@H](C)CN([C@H](C)CO)C(=O)c2cc(NC(=O)c3ccncc3)ccc2O1	.	-	-	.	.
Cc1ccc(S(=O)(=O)NCC(=O)OCc2nnc(-c3ccccc3)o2)cc1C	-	-	-	-	.
O=C(CNS(=O)(=O)c1ccc2ccccc2c1)OCc1nnc(-c2ccccc2)o1	-	-	34	-	-
COc1ccc(NC(=O)N(C)C[C@@H]2OCCCC[C@@H](C)Oc3ccc(NS(=O)(=O)c4ccc(Cl)cc4)cc3C(=O)N([C@@H](C)CO)C[C@H]2C)cc1	.	-	-	.	.
S=C(NCc1ccncc1)NC1CCCCC1	-	-	27	-	-
Cc1ccccc1-c1ccc([C@@H]2[C@@H](CO)N3CCCCN(S(C)(=O)=O)C[C@@H]23)cc1	.	-	-	.	.
O=C(CC(=O)NCc1cccnc1)NCc1cccnc1	-	-	-	-	.
CCC(NC(=O)NCc1cccnc1)(C(F)(F)F)C(F)(F)F	-	-	20	-	-
O=C(COC(=O)c1cccc(F)c1)Nc1cccc(S(=O)(=O)N2CCOCC2)c1	-	-	-	-	.
O=C(COC(=O)c1cccc(F)c1)Nc1cccc(S(=O)(=O)N2CCCCC2)c1	-	-	22	-	-
O=C(CN1CCCCCCC1)Nc1ccc(Cl)cc1Cl	-	.	.	-	.
